# This is a selection; strong and weak results do not stand in their true shares. Results filed as inconclusive are left out. Active and inactive are the calls of the source. Calls come from the whole dose curve; as a rule, active = well fitted curve in the direction sought with a large enough effect in the polarisation (not every such curve was filed as active); inconclusive = small, poorly fitted or top-dose-only effect, or effect the other way, or a change in a side signal; inactive = no such curve, though single readings can be large or run the other way; the % refers to the polarisation.
# Test: qHTS Assay for Inhibitors Targeting the Menin-MLL Interaction in MLL Related Leukemias: Competition With Fluorescein Labeled MLL-derived Peptide; note: % of control where 0% means no effect
# Conditions: Fluorescence polarization, fluorescein-MLL peptide displacement from menin; at 61.4 µM (top of the series) unless noted
row,SMILES,FP activity change
1,O=[N+]([O-])c1ccc(Nc2ccc(Oc3ccc([N+](=O)[O-])cc3[N+](=O)[O-])cc2)c([N+](=O)[O-])c1,inactive: 33.1%
2,CP(=O)(Nc1ccccc1Br)Oc1ccccc1 (stereo not drawn),inactive: -0.494%
3,COc1ccccc1OP(C)(=O)Nc1ccccc1 (stereo not drawn),inactive: -3.79%
4,O=P(Nc1ccccn1)(c1cccc2ccccc12)c1cccc2ccccc12,inactive: -0.476%
5,Cc1cc(SC(NC=O)C(Cl)(Cl)Cl)ncn1 (stereo not drawn),inactive: 3.99%
6,CCOC(=O)Nc1cccc([As](=O)(O)O)c1,inactive: 8.6%
7,CP(=S)(Nn1cnnc1)Oc1ccccc1 (stereo not drawn),inactive: -0.278%
8,Cc1cc(SC(NC(=O)c2ccccc2)C(Cl)(Cl)Cl)nc(C(C)C)n1 (stereo not drawn),inactive: 1%
9,CCCCOc1ccc(C(=O)NCC2(N3CCCCC3)CCCCC2)cc1OC,inactive: 0.335%
10,CCOC(=O)Nc1ccc([As](=O)(O)O)c(O)c1,inactive: 1.13%
11,CP(=O)(Nc1ccccn1)Oc1ccc(Cl)cc1 (stereo not drawn),inactive: 1.3%
12,CCC(C)N(CC(C)C)C(=S)SC(NC(C)=O)C(Cl)(Cl)Cl (stereo not drawn),inactive: 1.1%
13,CN(C)CCS,inactive: -2.06%
14,CCOC(=O)c1ccc(NC(=O)C(C)(CCl)SC)cc1 (stereo not drawn),inactive: 0.941%
15,CCOC(=O)c1ccc(NP(C)(=O)Oc2ccc(OC)cc2)cc1 (stereo not drawn),inactive: 0.372%
16,CCOP(C)(=S)SCC(=O)NC(C)C(=O)O (stereo not drawn),inactive: 0.916%
17,O=C(OC1CN2CCC1CC2)c1cccc([N+](=O)[O-])c1 (stereo not drawn),inactive: -3.85%
18,O=C(Nc1ccncc1[N+](=O)[O-])c1ccc([N+](=O)[O-])cc1[N+](=O)[O-],inactive: 23.3%
19,Cc1cc(C)cc(OP(C)(=O)Nc2ccc(SC(F)(F)F)cc2)c1 (stereo not drawn),inactive: 0.892%
20,CCc1ccc(OP(C)(=O)N2CCN(c3ccc([N+](=O)[O-])cc3)CC2)cc1 (stereo not drawn),inactive: -2.43%
21,O=C(COc1ccccc1)OC1CN2CCC1CC2 (stereo not drawn),inactive: -0.57%
22,CP(=O)(NC(=O)Nc1ccccc1)Oc1ccccc1 (stereo not drawn),inactive: 0.731%
23,CP(=O)(Oc1ccccc1)OC(c1ccccc1)C(F)(F)F (stereo not drawn),inactive: -1.09%
24,Cc1cccc(C)c1OP(C)(=O)Nc1ccc(SC(F)(F)F)cc1 (stereo not drawn),inactive: -0.617%
25,CP(=O)(Nc1ccc(SC(F)(F)F)cc1)Oc1ccc(Cl)cc1 (stereo not drawn),inactive: 0.0296%
26,COP1(=S)c2c(C)nn(CCC#N)c2N=C(c2ccc(F)cc2)N1C (stereo not drawn),inactive: 2.43%
27,COc1ccc(N/C(=N/P(=O)(N2CCOCC2)N2CCOCC2)N2CCOCC2)cc1,inactive: -0.847%
28,COc1cc(I)ccc1[As](=O)(O)O,inactive: -0.682%
